The values that follow are results of earlier work, collected in US20070244041A1, “Peptide Yy Analogues” (Reoscience A/S, priority 2004, published 2007).

Series [1] concerns Y2 receptors. The settings on record: 30, 300 and 3000 μg/kg bw.
Series [2] relates to Y2 over Y1 receptors.
Assay in series [3]: not given
The source holds these as a separate data set.

For the substance “PYY3-36: endogenous peptide YY (3-36), sequence SEQ ID NO: 2, Y2-selective”, the “caloric intake in mice lacking the Y2 receptor” value in series [1] was “fail to reduce caloric intake”. Also, the “4 hour food intake” value (acute i.p. injections, 30, 300 and 3000 μg/kg bw) is reported as “inhibits 4 hour food intake”. Further, the weight gain result (chronic treatment, twice daily injections of 50 μg/kg bw, rats) is “suppresses weight gain”. Also, in series [2], the “selectivity for Y2 over Y1 receptors” value is on record as “high selectivity”. Besides, in series [3] (90 min intravenous infusion, healthy human volunteers), the appetite result is given as “reduction in appetite”. The caloric intake entry in series [3] (90 min intravenous infusion, healthy human volunteers, following 12 hours) is recorded as “reduced caloric intake”. Further, the “food inhibitory effect in obese individuals” value in series [3] (peripherally administered, obese individuals) is “present also in obese individuals”.
